Target: T1, IL-23R (Homo sapiens, UniProt Q5VWK5)
T1 construct: host or cells: HEK293
T1 sequence (Q5VWK5 24-629): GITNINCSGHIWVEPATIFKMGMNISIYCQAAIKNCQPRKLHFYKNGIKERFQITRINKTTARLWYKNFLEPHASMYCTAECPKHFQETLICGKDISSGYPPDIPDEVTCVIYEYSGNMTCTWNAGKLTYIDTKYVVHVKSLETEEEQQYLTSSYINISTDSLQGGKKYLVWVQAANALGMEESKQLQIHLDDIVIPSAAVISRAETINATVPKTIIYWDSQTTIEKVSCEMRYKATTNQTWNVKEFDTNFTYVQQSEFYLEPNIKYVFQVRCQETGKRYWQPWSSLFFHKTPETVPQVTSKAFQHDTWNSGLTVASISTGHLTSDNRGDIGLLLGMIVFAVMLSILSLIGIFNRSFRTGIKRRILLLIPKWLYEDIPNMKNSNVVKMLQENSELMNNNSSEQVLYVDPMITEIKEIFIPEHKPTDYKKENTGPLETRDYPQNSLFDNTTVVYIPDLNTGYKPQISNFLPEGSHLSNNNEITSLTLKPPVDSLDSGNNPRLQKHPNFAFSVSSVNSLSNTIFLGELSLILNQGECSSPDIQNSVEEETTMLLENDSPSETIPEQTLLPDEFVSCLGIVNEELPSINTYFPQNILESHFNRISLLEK
Assay: IL23R Reporter Assay
Format: cell-based
Conditions: IL23R Reporter Assay (micromolar), HEK293 cells containing IL-23R, IL-12RP1 and STAT-inducible firefly luciferase reporter; 10 ng/mL IL-23 (EC90); 5 h at 37° C.

IC50: 230 nM
Compound: CC(=O)NCCCC[C@@H]1NC(=O)[C@H](Cc2c[nH]c3c(C)cccc23)NC(=O)[C@H]([C@@H](C)O)NC(=O)[C@H](CC(N)=O)NC(=O)[C@@H](NC(C)=O)C(C)(C)SSC(C)(C)[C@@H](C(=O)N[C@@H](Cc2ccc(OCCN)cc2)C(=O)N[C@@H](Cc2ccc3ccccc3c2)C(=O)N[C@@](C)(CCCCN)C(=O)N[C@@H](CCCCNC(C)=O)C(=O)N[C@@H](CC(N)=O)C(=O)N[C@@H](Cc2ccc(CN)cc2)C(=O)N(C)[C@H](Cc2ccc(O)cc2)C(N)=O)NC1=O [compound 10, MeCO-Pen(3)-N-T-7MeW-K(Ac)-Pen(3)-AEF-2Nal-aMeK-K(Ac)-N-Paf-NMeDTyr-CONH2]
